# Earlier results in publication PMC11924319, “Nanobody-Targeted Conditional Antimicrobial Therapeutics” (ACS Nano, 2025).
# Details: intravenous formulation, phase III
substance,measurement,value
murepavadin [POL],clinical safety outcome,increased incidence of acute kidney injury
